Experimental data from ChEMBL document CHEMBL3994604, “Ostalactones A-C, β- and ε-Lactones with Lipase Inhibitory Activity from the Cultured Basidiomycete Stereum ostrea” (J Nat Prod, 2016).

Biological target: T1, Pancreatic triacylglycerol lipase (Homo sapiens) (UniProt P16233)
T1 sequence (whole entry): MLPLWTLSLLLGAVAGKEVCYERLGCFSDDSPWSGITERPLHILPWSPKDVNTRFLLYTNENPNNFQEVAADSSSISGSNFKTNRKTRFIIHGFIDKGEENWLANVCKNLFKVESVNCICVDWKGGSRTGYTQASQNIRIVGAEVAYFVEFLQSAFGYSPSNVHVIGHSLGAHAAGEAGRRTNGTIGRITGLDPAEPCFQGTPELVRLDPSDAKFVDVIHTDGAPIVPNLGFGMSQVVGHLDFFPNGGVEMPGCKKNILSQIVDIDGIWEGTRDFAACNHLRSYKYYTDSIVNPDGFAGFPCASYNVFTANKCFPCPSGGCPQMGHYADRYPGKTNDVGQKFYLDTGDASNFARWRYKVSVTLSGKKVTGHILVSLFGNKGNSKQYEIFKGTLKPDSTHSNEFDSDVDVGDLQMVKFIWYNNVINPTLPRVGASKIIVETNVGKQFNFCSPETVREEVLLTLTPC
Assay: Inhibition of human pancreatic lipase using 4-methylumbelliferyl oleate as substrate after 30 mins by fluorometric method

inhibition: inactive
SMILES: C/C(=C\CC1C=C(CO)C=COC1=O)CO (stereo unspecified)

Activity calls are given as the source filed them. The rule behind the calls is not given here.
